These results are taken from patent US8969312B2, “Low side effect pharmaceutical composition containing antituberculosis drugs” (priority 2011, dated 2015).

By UniProt entry, the sequences of proteins in these tests, tags left out. Where a name states a change or a piece, a line headed by the entry shows the natural chain unless it says otherwise.
UniProt P05181: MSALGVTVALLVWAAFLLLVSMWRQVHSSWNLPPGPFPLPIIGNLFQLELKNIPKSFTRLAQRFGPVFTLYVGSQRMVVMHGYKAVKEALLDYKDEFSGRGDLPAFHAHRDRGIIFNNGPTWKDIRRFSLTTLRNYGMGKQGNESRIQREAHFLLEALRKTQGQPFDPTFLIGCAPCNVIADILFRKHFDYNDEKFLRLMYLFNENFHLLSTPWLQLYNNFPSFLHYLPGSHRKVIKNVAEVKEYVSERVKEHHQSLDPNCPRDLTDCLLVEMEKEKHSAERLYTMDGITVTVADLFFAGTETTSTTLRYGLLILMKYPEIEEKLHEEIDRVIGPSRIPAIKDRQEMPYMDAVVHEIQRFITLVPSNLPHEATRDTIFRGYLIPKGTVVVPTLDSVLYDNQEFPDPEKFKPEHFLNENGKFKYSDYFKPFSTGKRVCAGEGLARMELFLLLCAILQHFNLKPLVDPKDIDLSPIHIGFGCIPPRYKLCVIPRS

One series deals with amidase. Briefly: Mouse liver microsomal amidase, isoniazid to isonicotinic acid. It is filed as biochemical.
Series [1] concerns the target human liver microsomal cytochrome P450 2E1 (CYP2E1) (Homo sapiens, UniProt P05181). The series can be described thus: Human liver microsomal CYP2E1, chlorzoxazone 6-hydroxylation.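 On all read-outs here: chlorzoxazone added as substrate, 6-hydroxychlorzoxazone formation quantified by LC/MS/MS after 30 min at 37 °C with NADP+ regenerating system, compared against solvent control without test sample.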 The note with it: for Minimum Effective Dose: Table 7.

Regarding `O=c1c(O)c(-c2ccc(O)cc2)oc2cc(O)cc(O)c12` [Kaempferol], the values for the Amidase inhibition in the series on amidase (1 uM), in the series with amidase (10 uM) and in the series on amidase (100 uM) were 7.3 ± 8.2%, 25.3 ± 7.8% and 49.1 ± 8.6%, respectively.

With `Oc1cc(O)c2c(c1)O[C@@H](c1ccc(O)c(O)c1)[C@@H](O)C2` [(+)-Epicatechin], the “Inhibition of CYP 2E1” value in series [1] (66 μM) was determined as 44.32 ± 1.25%.

With `OC[C@@H](O)[C@@H](O)[C@H](O)[C@@H](O)CO` [Sorbitol], the “Minimum Effective Dose” value in series [1] is recorded as 158 mg.

`OCc1ccccc1` [Benzyl alcohol]: the “Minimum Effective Dose” value in series [1] was 158 mg.
